# Binding of CDR-mutated scFvs to a peptide of the spike HR2 region

Data: MIT Lincoln Laboratory AlphaSeq set, Engelhart et al. 2022, doi:10.1038/s41597-022-01779-4, as distributed in FLAb.

Target: peptide PDVDLGDISGINAS, taken from heptad repeat 2 (HR2) of SARS-CoV-2 spike.

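The parent was found by panning a naive human phage display library on the peptide. The library (AAYL49) carries one to three amino acid substitutions per variant, with no insertions or deletions. In AlphaSeq, yeast of one mating type display the scFv and yeast of the other type display the target. Binding brings cells together so that they mate, and sequencing counts the barcode pairs among the diploids. Read counts were normalised to the haploid input and turned into Kd by a linear fit to BCL2-family pairs of known affinity, for each replicate. Each pool was mated in three replicate cultures.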

Ab-14 is the parent antibody, in scFv form: VH, then three GGGGS repeats, then VL. The light chain is unchanged in all variants.
VH: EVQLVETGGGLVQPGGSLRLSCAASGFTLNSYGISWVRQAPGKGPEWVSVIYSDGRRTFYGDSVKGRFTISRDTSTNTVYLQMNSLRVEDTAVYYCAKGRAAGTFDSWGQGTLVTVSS
VL: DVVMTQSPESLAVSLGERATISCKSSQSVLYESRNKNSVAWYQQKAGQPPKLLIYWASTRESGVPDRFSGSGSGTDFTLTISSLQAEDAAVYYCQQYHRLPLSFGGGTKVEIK

Substitutions are numbered in sequence along the VH above, starting at 1 (not Kabat).
This list gathers variants with a substitution at K65 (VH, numbered from residue 1).
Values are apparent Kd, the geometric mean of the replicates that gave a signal; lower means stronger binding.
"no signal" marks a missing value. The strain was present, yet no cells mated with the target were sequenced in any replicate, which points to weak or no binding.
Background: pairings of library AAYL49 with three empty control strains gave a value in 15% of cases (median 11 µM, 5th percentile 680 nM). Values in that range, when seen in few replicates, are hard to tell from nonspecific mating.

changes	apparent Kd	detected
Y32F+K65H+G103C	no signal	0/3
I51N+F59M+K65R	32 µM	1/3
D54L+K65G+G99N	39 µM	3/3
D54N+K65V	no signal	0/3
N30R+D62Y+K65P	no signal	0/3
G61I+K65S+A101Q	30 nM	3/3
Y52N+R57S+K65F	600 µM	1/3
V50Q+D62A+K65W	no signal	0/3
I51S+G55I+K65V	21 µM	2/3
T58H+V64L+K65C	no signal	0/3
G55I+K65E+G103T	6.9 µM	1/3
D62I+K65R+F105C	2.4 µM	1/3
T28V+K65E+A102W	8.4 µM	1/3
R57H+F59H+K65Y	no signal	0/3
D62H+K65V+S107L	no signal	0/3
G61S+S63H+K65W	420 nM	3/3
S35P+G61E+K65E	no signal	0/3
S53V+D62Y+K65Y	33 µM	2/3
F27A+Y60G+K65C	370 nM	1/3
G26R+R56S+K65E	78 nM	3/3
F59V+K65N+G99A	no signal	0/3
K65Q	96 nM	3/3
L29A+K65Q+A102Q	1.0 µM	1/3
S35N+K65I+G99D	no signal	0/3
G26R+R57E+K65Y	no signal	0/3
T28V+K65D	23 nM	3/3
L29R+T58D+K65F	no signal	0/3
I51F+G61V+K65W	no signal	0/3
Y60K+K65I+G99A	no signal	0/3
F27A+K65C	2.1 µM	3/3
G61V+K65V	91 nM	3/3
S35D+K65W+G103M	no signal	0/3
I34F+D62A+K65L	no signal	0/3
T28R+K65M+A102E	100 µM	1/3
V50R+K65Y+G99W	no signal	0/3
T28R+Y32P+K65D	260 nM	3/3
G55A+Y60E+K65M	no signal	0/3
K65Y	32 nM	3/3
S31Q+I51D+K65D	no signal	0/3
S31Q+K65P	110 µM	1/3
S31V+R56V+K65W	5.3 µM	3/3
G61S+S63Q+K65I	no signal	0/3
T58N+K65G+D106T	9.5 µM	1/3
F27S+R56P+K65D	no signal	0/3
N30C+I34F+K65V	19 µM	1/3
L29Y+G33M+K65C	no signal	0/3
S31P+Y60T+K65W	no signal	0/3
V50Y+K65P	18 µM	1/3
I51M+D62W+K65Q	no signal	0/3
S35F+K65C+G99V	20 µM	2/3
Y32E+K65F	no signal	0/3
R57W+V64W+K65Y	no signal	0/3
D54T+K65G+D106K	840 nM	1/3
G55E+K65V+R100K	no signal	0/3
V50F+K65R+A102P	no signal	0/3
S53C+V64W+K65N	no signal	0/3
D54C+K65H+R100Q	900 nM	1/3
S31K+K65G+G103S	200 µM	1/3
T28S+K65V	3.8 nM	3/3
G61T+K65I	470 nM	2/3
S63Y+K65G+F105Q	890 nM	1/3
G26F+K65D+G103R	no signal	0/3
S31M+K65V+A102W	5.9 µM	1/3
D54Y+G55Q+K65Q	220 µM	1/3
V50G+K65N+F105K	no signal	0/3
N30Y+T58W+K65D	no signal	0/3

The 10 strongest on average among those seen in every replicate, once more:

{"changes": "T28S+K65V", "apparent Kd": "3.8 nM", "detected": "3/3"}
{"changes": "T28V+K65D", "apparent Kd": "23 nM", "detected": "3/3"}
{"changes": "G61I+K65S+A101Q", "apparent Kd": "30 nM", "detected": "3/3"}
{"changes": "K65Y", "apparent Kd": "32 nM", "detected": "3/3"}
{"changes": "G26R+R56S+K65E", "apparent Kd": "78 nM", "detected": "3/3"}
{"changes": "G61V+K65V", "apparent Kd": "91 nM", "detected": "3/3"}
{"changes": "K65Q", "apparent Kd": "96 nM", "detected": "3/3"}
{"changes": "T28R+Y32P+K65D", "apparent Kd": "260 nM", "detected": "3/3"}
{"changes": "G61S+S63H+K65W", "apparent Kd": "420 nM", "detected": "3/3"}
{"changes": "F27A+K65C", "apparent Kd": "2.1 µM", "detected": "3/3"}